# Measured affinities in a library of Ab-14 heavy chain variants

Source: Engelhart et al. 2022 (doi:10.1038/s41597-022-01779-4), MIT Lincoln Laboratory and A-Alpha Bio; data file from the FLAb repository.

All variants were tested on one target, the spike HR2 peptide PDVDLGDISGINAS (SARS-CoV-2).

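In library AAYL49, one, two or three CDR residues were substituted; doubles and triples were drawn at random. In AlphaSeq, yeast of one mating type display the scFv and yeast of the other type display the target. Pairs that bind mate more often; barcode pairs of the diploids are counted by sequencing. Scores were corrected for input abundance and mapped to Kd with protein pairs of known affinity run in the same pool. The assay was run in three technical replicates.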

Parent scFv Ab-14: VH joined to VL by a 15-residue (Gly4Ser)3 linker. Changes lie in the heavy chain CDRs alone.
VH: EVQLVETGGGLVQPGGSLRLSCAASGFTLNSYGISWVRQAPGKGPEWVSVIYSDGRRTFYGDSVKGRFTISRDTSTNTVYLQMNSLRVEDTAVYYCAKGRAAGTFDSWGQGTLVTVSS
VL: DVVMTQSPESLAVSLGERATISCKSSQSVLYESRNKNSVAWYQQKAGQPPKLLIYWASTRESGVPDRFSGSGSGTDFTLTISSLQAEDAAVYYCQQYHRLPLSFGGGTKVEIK

Each variant is given by its three heavy chain CDRs, as the data file delimits them; those of the parent are GFTLNSYGIS, VIYSDGRRTFYGDSVK, GRAAGTFDS. Affinities are written as log10 Kd with Kd in nM; a lower number is a better binder. Where no diploid with the target was found in that replicate, the entry reads "nd": below detection, most likely a poor binder, though not proof of it.

CDR-H1 | CDR-H2 | CDR-H3 | log10 Kd (nM) by replicate | signal with controls
GGTLVSYGIS | VPYSDGRRTFYGDSVK | GRAAGTFDS | nd / nd / nd | 0 of 9
GFTLNKYGWS | VIYWDGRRTFYGDSVK | GRAAGTFDS | 4.61 / nd / 5.71 | 2 of 9 (3.78)
DFTLNSYGIS | VIYSDGRRGFYGDSVK | TRAAGTFDS | 4.72 / nd / nd | 2 of 9 (4.79)
GFTLNSYGIS | VIYSDGRRDFYGDSVK | GREAGTFRS | nd / nd / nd | 0 of 9
GISLNSYGIS | VIYSDGHRTFYGDSVK | GRAAGTFDS | 0.93 / 1.03 / 0.98 | 3 of 9 (4.97)
GFTLNSYGIS | VIYSDGRRTFYGISVK | GRAKGTFIS | nd / nd / nd | 0 of 9
GFTLKSYGIF | VSYSDGRRTFYGDSVK | GRAAGTFDS | nd / 4.58 / nd | 3 of 9 (3.59)
GFTLNSYGIS | HIYSDGRRTLYCDSVK | GRAAGTFDS | nd / nd / nd | 0 of 9
GFTQNSYGIS | VIYEDGRRTFYGDSVK | IRAAGTFDS | nd / nd / nd | 1 of 9 (3.99)
GFTLNSYGSS | VIYSDGRRTVYGDSMK | GRAAGTFDS | 4.95 / nd / 4.32 | 3 of 9 (4.02)
GFTLNSKGIS | VIYSDGRRTFYGDSVP | GRAAGNFDS | 4.82 / 3.57 / 4.01 | 4 of 9 (3.87)
GFTLNSYGIS | VIYSLGRRTFYGDSVK | GREAGKFDS | nd / nd / nd | 1 of 9 (4.95)
GFTLNSYGIS | VIYADGFWTFYGDSVK | GRAAGTFDS | nd / nd / 2.60 | 0 of 9
GFTLNSYGIS | VDYSDGRRMFYDDSVK | GRAAGTFDS | 3.81 / 3.82 / 5.95 | 3 of 9 (4.52)
GFTLNSYCIS | VIYSDGRRTFYGDSVK | GRAGGTFDS | 4.53 / 4.36 / 4.64 | 5 of 9 (4.60)
GFTDNSYGIS | VIYGDGRRTFQGDSVK | GRAAGTFDS | nd / nd / nd | 2 of 9 (3.54)
GFTINSYGIS | VIYSEGRRTFYGDSVK | GRAAGTFDD | nd / nd / nd | 0 of 9
GFTLNHYGIS | VIYSDGRRTFYGDSVK | GHAAGTADS | nd / nd / 4.52 | 0 of 9
GFTLNSTGIS | VIYSDGRRTFYIDSVK | GRAAGTFDW | 3.39 / 1.88 / 2.93 | 2 of 9 (4.69)
GFTLNSYGIS | VIYSDGERTFYGRSRK | GRAAGTFDS | nd / nd / nd | 1 of 9 (3.43)
GFNLNSYGIS | VIDSDGRRTFYGDSVK | GRAAGTFDV | nd / nd / nd | 0 of 9
GFTLNSYGIS | VIYSDGRRWFYGDSVK | ARGAGTFDS | nd / nd / nd | 0 of 9
GFTLNSYCIS | VIRSDGRRTFYGDSVK | GRARGTFDS | nd / nd / nd | 0 of 9
GFTLNSYGIS | VIYSDGRRTFYGDSPK | GRAGRTFDS | nd / nd / nd | 2 of 9 (3.97)
GFTLNSYGIS | VIKSDGRWTFYGDSVK | GQAAGTFDS | nd / 4.27 / nd | 1 of 9 (3.20)
GFTLNSYGIS | VIYSDGRRTFYGDSVK | GRARQTFHS | nd / nd / nd | 2 of 9 (4.71)
GFTLNSYGIS | VIYSDGRRTFYGESVK | NRAARTFDS | 1.94 / 1.97 / 1.91 | 2 of 9 (3.88)
GFTLNSSGIS | VIYSDGRRTAYGDSVK | GRAAGTFDS | 2.72 / nd / nd | 0 of 9
GFTLNSYGIF | VWYSDGRRTFWGDSVK | GRAAGTFDS | nd / 2.48 / 2.15 | 0 of 9
GFTANSYGIS | VIYSDGRRTFYGDSVK | GEAHGTFDS | nd / 4.57 / 4.17 | 6 of 9 (4.72)
GFTLNLYGIS | VIYSDGRRTFYMMSVK | GRAAGTFDS | nd / nd / 4.59 | 3 of 9 (3.99)
HFTLNSYGIS | VIYWDGRRTFYGDSVT | GRAAGTFDS | 3.78 / 3.66 / nd | 2 of 9 (3.94)
GFTLNSYGIS | VIYSDGQRTEYGDSVK | GRAAGTFDV | nd / nd / nd | 0 of 9
GFTLNSYDIS | VIYSDGRRTFYGPSVK | GREAGTFDS | nd / nd / nd | 1 of 9 (3.78)
GFTLDSYGIS | VIYSDGRRTFYGDSVK | GRAAGTFDA | 0.14 / 0.50 / 0.39 | 3 of 9 (3.69)
GFTMNSYTIS | VIYSDGRRTFYGDSIK | GRAAGTFDS | nd / nd / 3.51 | 1 of 9 (4.60)
GFTLNSYIIS | VIYSDGRRTFYGDVVK | GRAAGTFDS | nd / nd / nd | 0 of 9
GFTLNSYFIS | VIYSDGRRTFYGDRVK | GRADGTFDS | nd / nd / 5.43 | 1 of 9 (3.23)
GFTLNSYWTS | VIYSDGRRTFGGDSVK | GRAAGTFDS | nd / 3.08 / 3.11 | 2 of 9 (3.88)
GFTINSYGIS | VIYTDGRRTFYGDSVK | GRAQGTFDS | 4.15 / 4.21 / nd | 5 of 9 (3.84)
GFTLYSYGCS | VIYSDGRGTFYGDSVK | GRAAGTFDS | nd / nd / nd | 0 of 9
GFTLNSYGRS | VIYSDGRRTFYGDSVH | GRAAGTIDS | nd / nd / nd | 0 of 9
GFTRNSYGIS | VIYSDGRRTFYGDMVK | GRAAGTFDS | 6.24 / nd / nd | 3 of 9 (4.63)

The 7 strongest on average among those seen in every replicate, once more:

{"CDR-H1": "GFTLDSYGIS", "CDR-H2": "VIYSDGRRTFYGDSVK", "CDR-H3": "GRAAGTFDA", "log10 Kd (nM) by replicate": "0.14 / 0.50 / 0.39", "signal with controls": "3 of 9 (3.69)"}
{"CDR-H1": "GISLNSYGIS", "CDR-H2": "VIYSDGHRTFYGDSVK", "CDR-H3": "GRAAGTFDS", "log10 Kd (nM) by replicate": "0.93 / 1.03 / 0.98", "signal with controls": "3 of 9 (4.97)"}
{"CDR-H1": "GFTLNSYGIS", "CDR-H2": "VIYSDGRRTFYGESVK", "CDR-H3": "NRAARTFDS", "log10 Kd (nM) by replicate": "1.94 / 1.97 / 1.91", "signal with controls": "2 of 9 (3.88)"}
{"CDR-H1": "GFTLNSTGIS", "CDR-H2": "VIYSDGRRTFYIDSVK", "CDR-H3": "GRAAGTFDW", "log10 Kd (nM) by replicate": "3.39 / 1.88 / 2.93", "signal with controls": "2 of 9 (4.69)"}
{"CDR-H1": "GFTLNSKGIS", "CDR-H2": "VIYSDGRRTFYGDSVP", "CDR-H3": "GRAAGNFDS", "log10 Kd (nM) by replicate": "4.82 / 3.57 / 4.01", "signal with controls": "4 of 9 (3.87)"}
{"CDR-H1": "GFTLNSYCIS", "CDR-H2": "VIYSDGRRTFYGDSVK", "CDR-H3": "GRAGGTFDS", "log10 Kd (nM) by replicate": "4.53 / 4.36 / 4.64", "signal with controls": "5 of 9 (4.60)"}
{"CDR-H1": "GFTLNSYGIS", "CDR-H2": "VDYSDGRRMFYDDSVK", "CDR-H3": "GRAAGTFDS", "log10 Kd (nM) by replicate": "3.81 / 3.82 / 5.95", "signal with controls": "3 of 9 (4.52)"}

Three control strains display no target. For library AAYL49, 15% of the pairings with them gave a signal, with a median of 4.06 and one signal in twenty below 2.83, so weak values seen in few replicates may be background. For each scFv, signals with the empty controls are counted beside the result, with their mean in brackets. In this assay the parent's reference entry averaged 0.65; its copy inside this library read 4.11 (one replicate of three).